From PubChem BioAssay (NCI)
Some results for these compounds are left out of this collection, so the calls shown say nothing about other tests.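 Test compounds were applied to cells in 96-well plates for 48 hours at 5 doses. GI50: concentration for 50% inhibition of growth.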

How the values were obtained:
Test in all cases: inhibition of tumour cell growth, NCI panel, 48 h; in the data active = GI50 below about 0.43 µM; inactive = the rest
[1] = tested on: HL-60(TB) leukemia
[2] = tested on: T-47D breast
[3] = tested on: SW-620 colon
[4] = tested on: NCI-H226 lung
[5] = tested on: PC-3 prostate
[6] = tested on: LOX IMVI melanoma
[7] = tested on: M14 melanoma
[8] = tested on: 786-0 renal
[9] = tested on: MCF7 breast
[10] = tested on: HT29 colon
[11] = tested on: HCT-116 colon
[12] = tested on: SK-MEL-28 melanoma
[13] = tested on: SF-295 CNS
[14] = tested on: SK-MEL-5 melanoma
[15] = tested on: RPMI-8226 leukemia
[16] = tested on: K-562 leukemia
[17] = tested on: OVCAR-5 ovarian
[18] = tested on: DU-145 prostate
[19] = tested on: SF-268 CNS
[20] = tested on: A549 NSCLC
[21] = tested on: SR leukemia
[22] = tested on: CAKI-1 renal
[23] = tested on: UACC-62 melanoma
[24] = tested on: SNB-19 CNS
[25] = tested on: CCRF-CEM leukemia
[26] = tested on: MDA-MB-231 breast
[27] = tested on: NCI-H23 lung
[28] = tested on: UO-31 renal
[29] = tested on: IGROV1 ovarian
[30] = tested on: ACHN renal
[31] = tested on: KM12 colon
[32] = tested on: OVCAR-3 ovarian
[33] = tested on: EKVX NSCLC
[34] = tested on: HCT-15 colon
[35] = tested on: RXF 393 renal
[36] = tested on: OVCAR-8 ovarian
[37] = tested on: SNB-75 CNS
[38] = tested on: MDA-N
[39] = tested on: HOP-62 NSCLC
[40] = tested on: SN12C renal
[41] = tested on: HCC-2998 colon
[42] = tested on: NCI-H522 lung
[43] = tested on: MALME-3M melanoma
[44] = tested on: TK-10 renal
[45] = tested on: COLO 205 colon
[46] = tested on: SF-539 CNS
[47] = tested on: MOLT-4 leukemia
[48] = tested on: SK-OV-3 ovarian
[49] = tested on: U251 CNS
[50] = tested on: UACC-257 melanoma
[51] = tested on: NCI/ADR-RES ovarian

Measured: GI50

C=C(C)C#CC(O)(C(=O)OC1CCN(C)CC1)c1cccs1 (stereo unspecified)
inactive: [1] > 100 µM | [2] > 100 µM | [3] > 100 µM | [4] > 100 µM | [5] > 100 µM | [6] > 100 µM | [7] > 100 µM | [8] > 100 µM | [9] > 100 µM | [10] > 100 µM | [11] > 100 µM | [12] > 100 µM | [13] > 100 µM | [14] > 100 µM | [15] > 100 µM | [16] > 100 µM | [17] > 100 µM | [18] > 100 µM | [19] > 100 µM | [20] > 100 µM | [21] > 100 µM | [22] > 100 µM | [23] > 100 µM | [24] > 100 µM | [25] > 100 µM | [26] > 100 µM | [27] > 100 µM | [28] 89.5 µM | [29] > 100 µM | [30] > 100 µM | [31] > 100 µM | [32] > 100 µM | [33] > 100 µM | [34] > 100 µM | [35] > 100 µM | [36] > 100 µM | [37] > 100 µM | [38] > 100 µM | [39] > 100 µM | [40] > 100 µM | [41] > 100 µM | [42] > 100 µM | [43] > 100 µM | [44] > 100 µM | [45] > 100 µM | [46] > 100 µM | [47] > 100 µM | [48] > 100 µM | [49] > 100 µM | [50] > 100 µM

CC(C)C(O)(C(=O)O/C=C1\CC2CCN1CC2)c1ccccc1 (stereo unspecified)
inactive: [1] 52.9 µM | [2] 99.4 µM | [3] > 100 µM | [4] > 100 µM | [5] > 100 µM | [6] > 100 µM | [7] > 100 µM | [8] > 100 µM | [9] > 100 µM | [10] > 100 µM | [11] > 100 µM | [12] > 100 µM | [13] > 100 µM | [14] > 100 µM | [15] 46.3 µM | [16] 54.8 µM | [51] 18.7 µM | [17] > 100 µM | [18] > 100 µM | [19] > 100 µM | [20] > 100 µM | [21] 56.3 µM | [22] > 100 µM | [23] > 100 µM | [24] > 100 µM | [25] 37.6 µM | [26] > 100 µM | [27] > 100 µM | [28] 21 µM | [29] > 100 µM | [30] > 100 µM | [31] > 100 µM | [32] > 100 µM | [33] 66.2 µM | [34] > 100 µM | [35] > 100 µM | [36] > 100 µM | [37] > 100 µM | [38] > 100 µM | [39] > 100 µM | [40] > 100 µM | [41] 35 µM | [42] > 100 µM | [43] > 100 µM | [44] > 100 µM | [45] > 100 µM | [46] > 100 µM | [47] 51.9 µM | [48] > 100 µM | [49] > 100 µM | [50] > 100 µM
